Apparent affinities of Ab-14 variants for a coronavirus HR2 peptide

Reference: Li et al. 2023, doi:10.1038/s41467-023-39022-2. File: FLAb, binding data.

Target: peptide PDVDLGDISGINAS, taken from heptad repeat 2 (HR2) of SARS-CoV-2 spike.

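The starting antibody came from a phage panning campaign against this peptide. The variants were designed computationally from a first round of random CDR variants and then made and measured. Several design methods are mixed in this list. The assay is AlphaSeq: two haploid yeast populations carry antibody and antigen on their surface. The frequency of each diploid, read from paired DNA barcodes, reflects how well the two displayed proteins bind. Scores were corrected for input abundance and mapped to Kd with protein pairs of known affinity run in the same pool. Mating was done six times.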

Parent: Ab-14, a human scFv built as VH, three GGGGS repeats, VL. Only the CDRs of the heavy chain vary.
VH: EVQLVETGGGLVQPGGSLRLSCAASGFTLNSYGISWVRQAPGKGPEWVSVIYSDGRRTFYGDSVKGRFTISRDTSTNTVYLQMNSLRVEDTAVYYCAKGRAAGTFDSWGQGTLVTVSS
VL: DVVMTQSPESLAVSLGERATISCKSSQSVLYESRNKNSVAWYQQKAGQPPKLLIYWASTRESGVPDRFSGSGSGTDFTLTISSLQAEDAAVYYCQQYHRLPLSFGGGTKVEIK

Each variant is given by its three heavy chain CDRs, as the data file delimits them; those of the parent are GFTLNSYGIS, VIYSDGRRTFYGDSVK, GRAAGTFDS. This list holds designs with at most six substitutions. Kd is apparent (estimated from mating counts) and averaged on the log scale over replicates with a signal. Smaller is tighter. Where no diploid with the target was found in any replicate, the entry reads "nd": below detection, most likely a poor binder, though not proof of it. The parent sequence was in this pool as ten entries: three were never detected, three once, and four in most replicates, with averages from 2.2 nM to 240 nM. Three control strains display no target. For all heavy chain designs, 1% of the pairings with them gave a signal, with a median of 120 nM and one signal in twenty below 7.0 nM, so weak values seen in few replicates may be background. Where one sequence has several entries in the source, the replicates are pooled. Values of this round are not directly comparable with the first-round values of the same sequences. In the paper, a design with two or fewer of six values counts as a poor binder.

GFSLNSYGIS / VIYSDGRRTFYGDSVK / GRWAGTFDS: 16 nM (6 of 6 replicates).
GFDLMEYGIS / VIYSDGRRTFYGDSVK / GRAAGTFDS: 57 nM (6 of 6 replicates).
GFELNSYGIS / VIYSDGRRTFYGDQVK / GMTAGTFDS: 6.1 nM (6 of 6 replicates).
GFVLNEYGIS / VIYSDGRRTFYGDSVK / GQAAGTFDS: 29 nM (6 of 6 replicates).
GFELNSYGIS / VIYSDGRRTFYGDHVK / GRTAGTFDT: 26 nM (6 of 6 replicates).
GFTLNEYGIS / VIYSDCRRTFYTDAVK / GRFAGTFDS: nd (0 of 6 replicates).
SFDLNSYGIS / VIYSDGRRTFYGDSVK / GRNAGTFDS: 8.8 nM (5 of 6 replicates).
GFTLNSYGIS / VIYSDGVRTFYGDSVK / GRAAGTFDT: nd (0 of 6 replicates).
GFSLNSYGIS / VIYSDGRRTFYSDSVK / GKAAGTFDQ: 3.4 nM (4 of 6 replicates).
GFDLNSYGIS / VIYSDGRRTFYSDSVK / GRAAGHFDS: 9.4 nM (6 of 6 replicates).
GFSLNSYGIS / VIYSDGRRTFYADQVK / GEAAGTFDS: 2.7 nM (6 of 6 replicates).
GFSLNSYGIS / VIYSDGRRTFYDDSVK / GMQAGTFDS: 3.6 nM (6 of 6 replicates).
GMDLNSYGIS / VIYSDGRRAFYGDSVK / GRAAGWFNS: nd (0 of 6 replicates).
GFNLNSYGIS / VIYSDGRRTFYGDSVK / DRAAGTFDS: nd (0 of 6 replicates).
GFTLNSYGIS / VIYSDGKRTFYTDSVK / GQTAGTFDS: 2.8 nM (6 of 6 replicates).
GFTLSIYGIS / VIYSDGRRTFYTDSVK / GRFAGTFDC: nd (0 of 6 replicates).
GFTLNDYGIS / VIYSDGRRTQYADSVK / GRAAGTFDS: 2.3 nM (6 of 6 replicates).
GFALNSYGIS / VIYSDGRRTFYGDSVK / GRAASTFDS: nd (0 of 6 replicates).
MFSLNSYGIS / VIYSDGRRTFYGDSVK / GQTAGTFDS: nd (0 of 6 replicates).
GFTLNSYGIS / VIYSDGRRTFYGDSVK / GRAEGTFDS: nd (0 of 6 replicates).
GFSLNSYGIS / VIYSDGRRTFYGDSVK / GRVAGTFDS: 2.9 nM (6 of 6 replicates).
GFSLNEYGIS / VIYSDGRRTFYGESVK / GRAAGTFDS: 1.6 nM (6 of 6 replicates).
GFTINSYGIS / VIYSDGRRTFYGDSVR / NEAAGTFVS: nd (0 of 6 replicates).
GFTLNSYGIS / VIYADGRRTFYGDSVK / GRAMCTNKS: nd (0 of 6 replicates).
GFSLNSYGIS / VIYADGRRTFYGDQVK / GKAAGTFDS: 1.6 nM (6 of 6 replicates).
GETLNSYGIS / VIYSDGRRTFYGDSVK / GRAEGTFDS: nd (0 of 6 replicates).
GFTLNSYGIS / VIYADGKRTFYGDSVK / GRAAGTFDS: 1.4 nM (6 of 6 replicates).
GFDLNSYGIS / VIYSVGRRTFYGDSVK / GRAAGWFNS: nd (0 of 6 replicates).
GFTLNSYGIS / VIYSDGQRTFYGDSVK / GWVAGTFDL: 6.6 nM (6 of 6 replicates).
GFNLNSYGIS / VIYSDGRRTFYGDSVK / GQTAGTFDL: 4.0 nM (6 of 6 replicates).
GFKLNSYGIS / VIYSDGRRTFYDDSVK / GLLAGTFDS: 2.2 nM (3 of 6 replicates).
GYTLNSYGIS / VIYFDGRRTFYGDSVK / GRNAGTFHS: nd (0 of 6 replicates).
GFDLNDYGIS / VIYSDGRRCFYGDSFK / GRAAGDFDS: nd (0 of 6 replicates).
GFDLNSYGIS / VIYSDGRRTFYGDSVK / GRWAGTFDS: 2.5 nM (6 of 6 replicates).
KFTLNSYGIS / VIYSDGRRTFYGDSVK / GKIAGTFDS: nd (0 of 6 replicates).
GFTLNQYGIS / VIYSDGMRTFYSDSVK / GREAGTFDS: 720 pM (6 of 6 replicates).
GFTLMSYGIS / VIYADGRRTFYGDSVK / GQAAGTFDS: 9.8 nM (6 of 6 replicates).
GFDLNSYGIS / VIYSDGRRTFYSDSVK / GQTAGTFDS: 1.0 nM (6 of 6 replicates).
GFDLNSYGIS / VIYSDGRRTFYSDSVK / GRNAGTFDS: 16 nM (5 of 6 replicates).
GFTLNSYGIS / VIYSDGRKTMYSDFVK / GRAAGTFDL: nd (0 of 6 replicates).
GFSLNSYGIS / VIYSDGRRTFYGDSVK / GRTAGTFDH: nd (0 of 6 replicates).
GFTPASYGIS / VMYSDGRRTFYSDSVK / GWAAGTDDS: nd (0 of 6 replicates).
GFTLDSYGIS / VIYSDGRRTIYGDSVK / GTAAGTFDS: nd (0 of 6 replicates).
GFNLNSYGIS / VIYADGRRTFYGDSVK / GKAAGTFDS: 380 pM (12 of 12 replicates).
GFDLNSYGIS / VIYSDGRRTFYGDSVK / GQTAGTFDW: 9.4 nM (6 of 6 replicates).
WFDLNSYGIS / VIYSDGRRTFYIDSVK / GNAAGTFDS: 33 nM (4 of 6 replicates).
GFDLNSYGIS / VIYSDGRRTFYGDDVK / GQAAGTFDD: 14 nM (6 of 6 replicates).
GFSLNSYGIS / VIYSDGRRTMYGDSVK / GQAAGTFDS: 93 nM (1 of 6 replicates).
GFDLNSYGIS / VIYSDGRRTFYMDMVK / GRTAGTFDS: nd (0 of 6 replicates).
GFTLNSYGIS / VIYADGRRTFYGDSVK / GEAAGTFDG: 11 nM (6 of 6 replicates).

Again, the first 6 entries without any signal:

CDR-H1	CDR-H2	CDR-H3	Kd	seen in
GFTLNEYGIS	VIYSDCRRTFYTDAVK	GRFAGTFDS	nd	0/6
GFTLNSYGIS	VIYSDGVRTFYGDSVK	GRAAGTFDT	nd	0/6
GMDLNSYGIS	VIYSDGRRAFYGDSVK	GRAAGWFNS	nd	0/6
GFNLNSYGIS	VIYSDGRRTFYGDSVK	DRAAGTFDS	nd	0/6
GFTLSIYGIS	VIYSDGRRTFYTDSVK	GRFAGTFDC	nd	0/6
GFALNSYGIS	VIYSDGRRTFYGDSVK	GRAASTFDS	nd	0/6